Values quoted from earlier work, collected in US9895730B2, “Method for extraction and surfactant enhanced subsurface contaminant recovery” (priority 2007, dated 2018).

Details: Table 2; cited from earlier work

Q: Which “log Kow” value does the source give for `c1ccc2ccccc2c1` [Naphthalene] here?
A: 3.4
